From patent publication US20230116602A1, “MCL1 INHIBITORS AND USES THEREOF” (California Institute of Technology, priority 2019, published 2023) come the findings set out here.

Amino acid sequences for entries named in this document (tags omitted).
UniProt Q07817, whole entry: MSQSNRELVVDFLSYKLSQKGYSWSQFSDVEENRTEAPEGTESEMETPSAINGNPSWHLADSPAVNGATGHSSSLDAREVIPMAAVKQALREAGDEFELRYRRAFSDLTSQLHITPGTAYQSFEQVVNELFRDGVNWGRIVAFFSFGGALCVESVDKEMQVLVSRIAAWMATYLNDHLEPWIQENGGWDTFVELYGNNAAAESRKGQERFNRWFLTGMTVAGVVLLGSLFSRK
UniProt P10415, whole entry: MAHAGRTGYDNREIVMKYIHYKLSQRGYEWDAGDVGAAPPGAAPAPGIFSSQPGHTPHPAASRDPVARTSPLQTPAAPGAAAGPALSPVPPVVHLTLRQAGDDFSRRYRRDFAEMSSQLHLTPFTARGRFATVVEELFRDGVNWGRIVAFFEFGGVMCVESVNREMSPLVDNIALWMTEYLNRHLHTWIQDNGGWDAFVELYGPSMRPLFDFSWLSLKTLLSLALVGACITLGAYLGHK
UniProt Q07820, whole entry: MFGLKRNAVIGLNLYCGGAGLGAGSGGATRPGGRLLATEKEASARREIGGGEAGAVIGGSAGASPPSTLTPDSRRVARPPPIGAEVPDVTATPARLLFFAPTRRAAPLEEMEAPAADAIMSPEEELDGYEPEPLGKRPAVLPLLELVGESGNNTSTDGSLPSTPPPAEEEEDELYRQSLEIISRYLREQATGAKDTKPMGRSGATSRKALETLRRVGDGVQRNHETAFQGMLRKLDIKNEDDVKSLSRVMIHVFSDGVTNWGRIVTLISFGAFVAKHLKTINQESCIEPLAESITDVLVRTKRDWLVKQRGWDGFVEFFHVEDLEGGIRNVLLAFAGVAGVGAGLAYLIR

The subject of assay [1] is drug-sensitive cell lines of Table 3. Nature of the assay: Cell line growth retardation assay, sensitive cohort. The note with it: for Fold Diff: average IC50 of resistant cohort divided by average IC50 of sensitive cohort; for pIC50: read-out: AvgSen IC50, arithmetic mean of IC50s over the sensitive cohort of Table 3, 6 days growth. As for the experimental part:
(§1) Cells were seeded at densities of 1,000-5,000 cells per well in 48-well tissue culture plates. After a 24 h rest period, cells were treated with compound at 10 μM, 1 μM, […], 0.08 μM, 0.016 μM, and 0.0032 μM. A group of cells were treated with the vehicle in which the compound was prepared and served as a control. Prior to treatment, cells were counted and this count was used as a baseline for the calculation of growth inhibition. The cells were grown in the presence of compounds for 6 days and were counted on day 6. All cell counting was performed using a Synentec Cellavista plate imager. Growth inhibition was calculated as a ratio of cell population doublings in the presence of compound versus the absence of compound. […] IC50 values for each compound were calculated by fitting curves to data points from each dose-response assay using the Proc NLIN function in SAS for Windows version 9.2 (SAS Institute, Inc.).
(§2) Human cancer cell lines were grouped as “sensitive” or “resistant” to MCL1 inhibition based on whether their growth was retarded by AMG-176 (i.e., (1′S,11R,12S,14E,16S,16aR,18aR)-6′-Chloro-3′,4′,12,13,16,16a,17,18,18a,19-decahydro-16-methoxy-11,12-dimethyl-,Spiro[5,7-etheno-1H,11H-cyclobut[i][1,4]oxazepino[3,4-f][1,2,7]thiadiazacyclohexadecine-2(3H),1′(2′H)-naphthalen]-8(9H)-one 10,10-dioxide) or MIK665 (i.e., (R)-2-((5-(3-chloro-2-methyl-4-(2-(4-methylpiperazin-1-yl)ethoxy)phenyl)-6-(4-fluorophenyl)thieno[2,3-d]pyrimidin-4-yl)oxy)-3-(2-((2-(2-methoxyphenyl)pyrimidin-4-yl)methoxy)phenyl)propanoic acid) (data not shown; see Table 3). These sensitive and resistant cohorts were interrogated for response to each compound, and IC50S were calculated for each cell line using the same technique described above. Average IC50S for the sensitive (“AvgSen IC50”) and resistant (“AvgRes IC50”) cohorts were calculated as arithmetic means of the group, and fold differences (“Fold Diff”) between the resistant and sensitive cohorts were calculated by diving the average IC50 for the resistant cohort by the average IC50 for the sensitive cohort. “A” represents an IC50 of 1 μM or less, “B” represents an IC50 of greater than 1 μM to 5 μM, “C” represents an IC50 of greater than 5 μM, “+” represents a fold difference of 10 or more, and “−” represents a fold difference less than 10.

The target in a further assay is BCLXL (Homo sapiens, UniProt Q07817). In words: BCLXL affinity assay (competition binding, qPCR readout). The note with it: read-out: BCLXL Kd; recombinant BCLXL, 11-point 3-fold dilution series. As for the experimental part: (§3) Recombinant MCL1, BCL2 and BCXL proteins were prepared in either an E. coli host derived from the BL21 strain or in HEK-293 cells. The recombinant proteins were subsequently tagged with DNA for qPCR detection. Streptavidin-coated magnetic beads were treated for 30 minutes at room temperature with the respective biotinylated peptide ligands for each recombinant protein to generate affinity resins for the assays. The liganded beads were blocked with excess biotin and washed with blocking buffer (SeaBlock (Pierce), 1% BSA, 0.05% Tween 20, 1 mM DTT) to remove unbound ligand and to reduce nonspecific binding. Binding reactions were assembled by combining recombinant protein, liganded affinity beads, and test compounds in 1× binding buffer (20% SeaBlock, 0.17×PBS, 0.05% Tween 20, 6 mM DTT). Test compounds were prepared as 111X stocks in 100% DMSO. The compounds were then diluted directly into the assays such that the final concentration of DMSO was 0.9%. The assay plates were incubated at room temperature with shaking for 1 hour and the affinity beads were washed with wash buffer (1×PBS, 0.05% Tween 20). […] The recombinant protein concentration in the eluates was measured by qPCR. Kds were determined using an 11-point 3-fold compound dilution series with three DMSO control points. […]
(In general: Quantitative PCR measures a nucleic acid by following its amplification.)

The test system of assay [2] is drug-resistant cell lines of Table 3. Nature of the assay: Cell line growth retardation assay, resistant cohort. The note with it: read-out: AvgRes IC50, arithmetic mean of IC50s over the resistant cohort of Table 3, 6 days growth. As for the experimental part:
as §1, §2

Another assay has as its target BCL2 (Homo sapiens, UniProt P10415). Nature of the assay: BCL2 affinity assay (competition binding, qPCR readout). The note with it: read-out: BCL2 Kd; recombinant BCL2, 11-point 3-fold dilution series. As for the experimental part:
as §3

For the next assay, the target named is MCL1 (Homo sapiens, UniProt Q07820). In words: MCL1 affinity assay (competition binding, qPCR readout). The note with it: read-out: MCL1 Kd, recombinant MCL1, 11-point 3-fold dilution series. As for the experimental part: Recombinant MCL1, BCL2 and BCXL proteins were prepared in either an E. coli host derived from the BL21 strain or in HEK-293 cells. The recombinant proteins were subsequently tagged with DNA for qPCR detection. Streptavidin-coated magnetic beads were treated for 30 minutes at room temperature with the respective biotinylated peptide ligands for each recombinant protein to generate affinity resins for the assays. The liganded beads were blocked with excess biotin and washed with blocking buffer (SeaBlock (Pierce), 1% BSA, 0.05% Tween 20, 1 mM DTT) to remove unbound ligand and to reduce nonspecific binding. Binding reactions were assembled by combining recombinant protein, liganded affinity beads, and test compounds in 1× binding buffer (20% SeaBlock, 0.17×PBS, 0.05% Tween 20, 6 mM DTT). Test compounds were prepared as 111X stocks in 100% DMSO. The compounds were then diluted directly into the assays such that the final concentration of DMSO was 0.9%. The assay plates were incubated at room temperature with shaking for 1 hour and the affinity beads were washed with wash buffer (1×PBS, 0.05% Tween 20). The beads were then re-suspended in elution buffer (1×PBS, 0.05% Tween 20, 0.5 μM non-biotinylated affinity ligand) and incubated at room temperature with shaking for 30 minutes. The recombinant protein concentration in the eluates was measured by qPCR. Kds were determined using an 11-point 3-fold compound dilution series with three DMSO control points. “A*” represents a Kd of 100 nM or less, “A” represents a Kd of 101 nM to 500 nM, “B” represents a Kd of 501 nM to 1,500 nM, and “C” represents a Kd of greater than 1,500 nM.

[3] abbreviates: tested form: possibly trifluoroacetate (inferred only).

Each structure is given as a SMILES string. pIC50, pKd: −log10 of the molar value. Like-named read-outs stand apart in the source and are kept apart here.

As a reminder, the pIC50 is the IC50 on a negative log10 scale, so that one unit is a factor of ten. By pKd is commonly meant the negative decadic logarithm of the Kd, by convention in mol/L. Turning to `COc1ccc(COc2ccccc2C[C@@H](Oc2nsc3cnc(-c4ccc(F)cc4)c(-c4ccc(OCCN5CCN(C)CC5)c(Cl)c4C)c23)C(=O)O)cc1`, in assay [1], the “Fold Diff” value was “− (“−” represents a fold difference less than 10)”. Besides, the negative logarithm of the IC50 (pIC50) in assay [1] was 5.30 to 6.00; in assay [2], < 5.30. In addition, the pKd on BCLXL, at BCL2 and at MCL1 was < 5.82 in each case.
Take `COc1ccccc1-c1nccc(COc2ccccc2C[C@@H](Oc2nsc3cnc(-c4cnn(CC5CC5)c4)c(-c4ccc(OCCN5CCN(C)CC5)c(Cl)c4C)c23)C(=O)O)n1`: in assay [1], the “Fold Diff” value was “− (“−” represents a fold difference less than 10)” and the negative logarithm of the IC50 (pIC50) was 5.30 to 6.00. In assay [2], the negative-log IC50 (pIC50) was < 5.30. For the same molecule, the pKd at MCL1 is 5.82 to 6.30.
In the case of `COc1ccccc1-c1nccc(COc2ccccc2C[C@@H](Oc2nsc3cnc(-c4ccc(CCc5ccn(C)n5)cc4)c(-c4ccc(OCCN5CCN(C)CC5)c(Cl)c4C)c23)C(=O)O)n1`, in assay [1], the “Fold Diff” value is “+ (“+” represents a fold difference of 10 or more)” and the pIC50 was > 6.00. Besides, the negative-log IC50 (pIC50) in assay [2] was < 5.30. Further, at MCL1, the negative-log Kd (pKd) is > 7.00.
Regarding `COc1cccc(-c2ncc3snc(O[C@H](Cc4ccccc4OCc4ccnc(N5CCC(F)(F)CC5)n4)C(=O)O)c3c2-c2ccc(OCCN3CCN(C)CC3)c(Cl)c2C)c1`, the “Fold Diff” value in assay [1] (setting [3]) was “− (“−” represents a fold difference less than 10)”. Besides, the pIC50 in assay [1] (setting [3]) was 5.30 to 6.00; in assay [2] (setting [3]), < 5.30. Moreover, the negative logarithm of the Kd (pKd) at MCL1 (setting [3]) is < 5.82.
Turning to `Cc1c(-c2c(-c3cccc4c3CCCC4)ncc3snc(O[C@H](Cc4ccccc4OCc4ccnn4CC(F)(F)F)C(=O)O)c23)ccc(OCCN2CCN(C)CC2)c1Cl`, in assay [1], the “Fold Diff” value is “− (“−” represents a fold difference less than 10)”. Also, the pIC50 in assay [1] and in assay [2] was < 5.30 in each case. Besides, the pKd at BCLXL, on BCL2 and at MCL1 was < 5.82 each time.
